The assay addresses 5-hydroxytryptamine receptor 1A (Rattus norvegicus, UniProt P19327). Kind of assay: Affinity for 5-hydroxytryptamine 1A receptor labeled with [3H]8-OH-DPAT radioligand in hippocampus tissue. Format: tissue-based.

Amino acid sequences for entries named in this document (tags omitted).
UniProt P19327, whole entry: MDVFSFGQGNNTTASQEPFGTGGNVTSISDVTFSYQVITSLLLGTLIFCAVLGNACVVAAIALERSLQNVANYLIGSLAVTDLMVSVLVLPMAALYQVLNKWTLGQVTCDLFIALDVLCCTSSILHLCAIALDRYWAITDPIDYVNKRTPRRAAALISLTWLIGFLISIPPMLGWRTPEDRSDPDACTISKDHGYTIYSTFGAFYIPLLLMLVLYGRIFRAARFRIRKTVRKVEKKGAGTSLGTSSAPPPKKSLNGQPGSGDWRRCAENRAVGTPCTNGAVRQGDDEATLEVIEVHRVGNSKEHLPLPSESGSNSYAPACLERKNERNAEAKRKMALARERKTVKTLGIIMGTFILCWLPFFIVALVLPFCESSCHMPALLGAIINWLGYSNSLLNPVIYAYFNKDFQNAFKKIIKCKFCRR

For `O=C1CC2(CCCC2)CC(=O)N1CCCCN1CCN(c2nsc3ccccc23)CC1` [TIOSPIRONE], the IC50 came to 18 nM.

By IC50 is commonly meant the point on the concentration scale where inhibition reaches its midpoint.

Values taken from ChEMBL document CHEMBL1125620, “Synthesis and biological evaluation of a series of substituted N-alkoxyimides and -amides as potential atypical antipsychotic agents” (J Med Chem, 1991).
